From patent publication US20100210668A1, “COMPOSITION AND METHOD FOR TREATMENT OR PREVENTION OF BENIGN PROSTATIC HYPERPLASIA AND LOWER URINARY TRACT SYMPTOMS” (DONG-A PHARM. CO., LTD., priority 2007, published 2010)

Legend:
health men [1] = assay: Safety Test 1: vital signs in supine position, Tamsulosin combination; type: in vivo, human
Text: 28 health men aged 19 to 50 years were divided into four groups according to randomization list, and administered by a) placebo and placebo (Group A), b) placebo and the pyrazolopyrimidinone of chemical formula (I) (Group B), c) Tamsulosin and placebo (Group C) and d) Tamsulosin and the pyrazolopyrimidinone of chemical formula (I) (Group D) to evaluate the effect of the combinational administration of the pyrazolopyrimidinone of chemical formula (I) and Tamsulosin on the safety.
(§1) The safety evaluation was performed by observing vital signs (diastolic blood pressure, pulse rate, body temperature), clinical laboratory testing, electrocardiogram, adverse reactions such as subjective symptom and objective symptom. In addition, the effect of drug interaction on pharmacokinetics of the pyrazolopyrimidinone was observed.

health men [2] = assay: Safety Test 2: vital signs in supine position, Silodosin combination; type: in vivo, human; conditions: the values are: Systolic blood pressure mean
Method: 9 health men aged 19 to 50 years were divided into three groups according to randomization list, and administered by a) placebo and the pyrazolopyrimidinone of chemical formula (I) (Group A), b) placebo and Silodosin (Group B), and c) Silodosin and the pyrazolopyrimidinone of formula (I) (Group C) to evaluate the effect of the combinational administration of the pyrazolopyrimidinone of formula (I) and Silodosin on the safety.
as §1, with “drug-drug” for “drug”

| SMILES | Diastolic blood pressure mean (health men [1]) | Diastolic blood pressure mean (health men [2]) |
| --- | --- | --- |
| CCCOc1ccc(S(=O)(=O)NCCC2CCCN2C)cc1-c1nc2c(CCC)nn(C)c2c(=O)[nH]1 (stereo not drawn) [Compound of formula (I), 5-[2-propyloxy-5-(1-methyl-2-pyrolidinylethylamidosulphonyl)phenyl]-1-methyl-propyl-1,6-dihydro-7H-pyrazolo (4,3-d)pyrimidin-7-one] | 112.4 | 113 mmHg |
| CCOc1ccccc1OCCN[C@H](C)Cc1ccc(OC)c(S(N)(=O)=O)c1 [Tamsulosin, (R)-5-(2-(2-(2-ethoxyphenoxy)ethylamino)propyl)-2-methoxy benzensulfonamide, reference compound] | 112.3 | – |
